# OPERA 2.9 data: properties

Melting points are in °C. The boiling point refers to atmospheric pressure (760 mmHg), by the definition of the set. logP is the log10 of the octanol-water partition coefficient; higher is more lipophilic. Water solubility is log10 of mol/L, nominally at 25 °C; higher is more soluble. Vapor pressures (log10 mmHg) refer to near room temperature, 15 to 30 °C; higher is more volatile. The unbound fraction in human plasma runs from 0 (all bound) to 1 (all free). Clint is human hepatic intrinsic clearance in µL/min per million cells; 0 means that no clearance was seen.

{"smiles": "CCCCCCCC/C=C\\CCCCCCCC(=O)OCC(C)(C)COC(=O)CCCCCCC/C=C\\CCCCCCCC", "name": "2,2-Dimethyl-1,3-propanediyl dioleate", "melting point (°C)": "-21", "water solubility (log10 mol/L)": "-7.102"}
{"smiles": "O=C1C2=C(O)CCC(O)=C2C(=O)c2ccccc21", "melting point (°C)": "152.8", "water solubility (log10 mol/L)": "-5.509"}
{"smiles": "Cc1cccc(C)c1NC(=O)CN1CCN(CCCC(c2ccc(F)cc2)c2ccc(F)cc2)CC1", "name": "Lidoflazine", "melting point (°C)": "160", "water solubility (log10 mol/L)": "-3.68"}
{"smiles": "CC1(C)CC(NCCC#N)CC(C)(CNCCC#N)C1", "stereo": "stereo not given", "melting point (°C)": "-52", "logP": "1.9", "vapor pressure (log10 mmHg)": "-5.642"}
{"smiles": "Cc1ccc(S(=O)(=O)NC(O)=Nc2ccccc2)cc1", "name": "4-Methyl-N-(phenylcarbamoyl)benzenesulfonamide", "melting point (°C)": "154.5", "water solubility (log10 mol/L)": "-2.001"}
{"smiles": "CCCCN1C[C@H](O)[C@@H](O)[C@H](O)[C@H]1CO", "name": "Miglustat", "logP": "-0.6", "water solubility (log10 mol/L)": "0.419", "fu": "0.99"}
{"smiles": "C=CC1CCC(C2CCC(c3ccc(C)cc3)CC2)CC1", "stereo": "stereo not given", "melting point (°C)": "66", "logP": "4.7", "water solubility (log10 mol/L)": "-7.752", "vapor pressure (log10 mmHg)": "-5.835"}
{"smiles": "C=CC(C)=CCC=C(C)C", "name": "beta-Ocimene", "logP": "5.4", "water solubility (log10 mol/L)": "-4.83", "vapor pressure (log10 mmHg)": "0.219"}
{"smiles": "CC1(C)CC(OC(=O)CCCCCCCCC(=O)OC2CC(C)(C)NC(C)(C)C2)CC(C)(C)N1", "name": "Bis(2,2,6,6-tetramethyl-4-piperidyl) sebacate", "water solubility (log10 mol/L)": "-4.408", "vapor pressure (log10 mmHg)": "-10"}
{"smiles": "CC[C@]12CC[C@@H]3c4ccc(OC)cc4CC[C@H]3[C@@H]1CC[C@@H]2O", "name": "18-Methylestradiol-3-methyl ether", "logP": "5.24", "water solubility (log10 mol/L)": "-4.876"}
{"smiles": "CN(C(=O)N(C)c1ccccc1)c1ccccc1", "name": "1,3-Dimethyl-1,3-diphenylurea", "logP": "2.82", "water solubility (log10 mol/L)": "-3.498", "vapor pressure (log10 mmHg)": "-5.057"}
{"smiles": "O=C1OCCN1CCCO", "name": "3-(3-Hydroxypropyl)-1,3-oxazolidin-2-one", "logP": "-1.22", "vapor pressure (log10 mmHg)": "-4.673"}
{"smiles": "C=CN1CCN(C=C)C1=O", "name": "2-Imidazolidinone, 1,3-diethenyl-", "melting point (°C)": "69", "logP": "1.2", "vapor pressure (log10 mmHg)": "-2.404"}
{"smiles": "O=P(O)(O)C(Cl)(Cl)P(=O)(O)O", "name": "Clodronic acid", "logP": "-2.4", "water solubility (log10 mol/L)": "-1.516", "fu": "0.64"}
{"smiles": "CC(C)COC(=O)c1ccccc1O", "name": "Isobutyl salicylate", "logP": "4.09", "water solubility (log10 mol/L)": "-3.998", "vapor pressure (log10 mmHg)": "-1.353"}
{"smiles": "CC(=O)[C@H]1CC[C@H]2[C@@H]3C=CC4=CC(=O)CC[C@@]4(C)[C@@H]3CC[C@]12C", "name": "Dydrogesterone", "logP": "3.4", "water solubility (log10 mol/L)": "-4.808", "fu": "0.03"}
{"smiles": "COc1ccc(C(=O)c2ccccc2)c(O)c1", "name": "2-hydroxy-4-methoxybenzophenone", "fu": "0.00952", "hepatic Clint (µL/min/10^6 cells)": "15.7"}
{"smiles": "O=C1CCC(=O)N1C(O)C(Cl)Cc1ccc2ncccc2c1", "stereo": "stereo not given", "melting point (°C)": "135", "water solubility (log10 mol/L)": "-2.202", "vapor pressure (log10 mmHg)": "-6.866"}
{"smiles": "CCOC(=O)C(C)=CCP(=O)(OCC)OCC", "name": "Ethyl 4-(diethoxyphosphinyl)-2-methyl-2-butenoate", "logP": "1.95", "vapor pressure (log10 mmHg)": "-4.824"}
{"smiles": "O=C1CCCC=CCCCCCCCCCC1", "name": "5-Cyclohexadecen-1-one", "melting point (°C)": "21.8", "logP": "6.4", "water solubility (log10 mol/L)": "-5.317", "vapor pressure (log10 mmHg)": "-3.824"}
{"smiles": "COc1cc(/N=N/c2cc(S(=O)(=O)[O-])c3cccc(S(=O)(=O)[O-])c3c2)c(C)cc1NC(=O)Nc1cc(C)c(/N=N/c2cc(S(=O)(=O)[O-])c3cccc(S(=O)(=O)[O-])c3c2)cc1OC.[Na+].[Na+].[Na+].[Na+]", "name": "C.I. Direct Yellow 34", "logP": "-4.5", "vapor pressure (log10 mmHg)": "-9.545"}
{"smiles": "CCc1cccc2c3c([nH]c12)C(CC)(CC(=O)O)OCC3", "stereo": "stereo not given", "name": "Etodolac", "water solubility (log10 mol/L)": "-3.865", "fu": "0.00875"}
{"smiles": "BrC=Cc1ccccc1", "name": "(2-Bromovinyl)benzene", "logP": "3.391", "water solubility (log10 mol/L)": "-3.37"}
{"smiles": "CC(=O)C(/N=N/c1ccc(C)cc1[N+](=O)[O-])C(=O)Nc1ccc(Cl)cc1", "stereo": "stereo partly drawn", "melting point (°C)": "236", "water solubility (log10 mol/L)": "-7.605"}
{"smiles": "CCCC1CC(C)(OC(C)=O)CCO1", "stereo": "stereo not given", "name": "2H-Pyran-4-ol, tetrahydro-4-methyl-2-propyl-, 4-acetate", "BP (°C)": "238", "logP": "2.39", "water solubility (log10 mol/L)": "-1.904", "vapor pressure (log10 mmHg)": "-0.493"}
{"smiles": "COc1cc(/N=N/c2cccc(S(=O)(=O)[O-])c2)ccc1Nc1nc(Nc2ccc(/N=N/c3cccc(S(=O)(=O)[O-])c3)cc2OC)nc(N(CCO)CCO)n1.[Na+].[Na+]", "name": "KST Yellow J-GW Liquid", "logP": "-3.31", "vapor pressure (log10 mmHg)": "-9.491"}

Excerpt, the final 2 entries:

{"smiles": "CCCC1CC(C)(OC(C)=O)CCO1", "stereo": "stereo not given", "name": "2H-Pyran-4-ol, tetrahydro-4-methyl-2-propyl-, 4-acetate", "BP (°C)": "238", "logP": "2.39", "water solubility (log10 mol/L)": "-1.904", "vapor pressure (log10 mmHg)": "-0.493"}
{"smiles": "COc1cc(/N=N/c2cccc(S(=O)(=O)[O-])c2)ccc1Nc1nc(Nc2ccc(/N=N/c3cccc(S(=O)(=O)[O-])c3)cc2OC)nc(N(CCO)CCO)n1.[Na+].[Na+]", "name": "KST Yellow J-GW Liquid", "logP": "-3.31", "vapor pressure (log10 mmHg)": "-9.491"}

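These are experimental values that the OPERA curators gathered from public databases to train and test their QSAR models. One number stands for a compound and property, with no spread given. Conditions of the individual experiments are not part of the data. Where a salt, mixture or single isomer is drawn, the source does not say that exactly this form was tested. Some upstream entries may be estimates or bounds without being marked so.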

Values as listed in the OPERA 2.9 repository of K. Mansouri.